# Measured affinities in a library of Ab-14 light chain variants

All variants were tested on one target, the spike HR2 peptide PDVDLGDISGINAS (SARS-CoV-2).

Parent scFv Ab-14: VH joined to VL by a 15-residue (Gly4Ser)3 linker. Changes lie in the light chain CDRs alone.
VH: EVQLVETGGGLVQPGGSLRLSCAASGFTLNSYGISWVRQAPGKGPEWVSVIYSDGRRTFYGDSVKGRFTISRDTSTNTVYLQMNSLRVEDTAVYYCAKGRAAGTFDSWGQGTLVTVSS
VL: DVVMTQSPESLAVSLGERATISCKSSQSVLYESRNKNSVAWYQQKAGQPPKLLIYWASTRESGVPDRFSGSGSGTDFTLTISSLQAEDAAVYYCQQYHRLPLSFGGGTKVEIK

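Phage display of a naive human antibody library on the peptide gave the parent. Designed CDR sequences, proposed from the first random library and measured here. Their group label is 14L_GP_Gen (GP: Gaussian process model; Gen: genetic algorithm; a sequence that several methods proposed may carry one label only). AlphaSeq pools MATa yeast showing the antibodies with MATalpha yeast showing the peptide. Mating (16 h, 30 °C) was followed by selection of diploids and sequencing of their barcodes. The ratio of observed to expected reads was calibrated, replicate by replicate, on BCL2-family standards whose Kd was known from biolayer interferometry. Each pool was mated in six replicate cultures.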

Variants are written as CDR1, CDR2 and CDR3 of the light chain (limits as in the source). Parent: KSSQSVLYESRNKNSVA, WASTRES, QQYHRLPLS. Affinities are written as log10 Kd with Kd in nM; a lower number is a better binder. Replicates are averaged; those with no signal do not enter the mean. "nd" means that the variant was in the library but no mating with the target was seen in that replicate; the authors take this as a sign of poor binding, and no number exists. The range of this assay differs from that of the first round, and the authors advise against merging the two. In the paper, a design with two or fewer of six values counts as a poor binder. As a blank, each scFv also met three strains without target: over all light chain designs, 4% of these pairings were detected, typically at 2.64 and seldom below 1.59. The control count says in how many pairings with the empty strains this scFv gave a signal, with their mean in brackets.

| CDR-L1 | CDR-L2 | CDR-L3 | log10 Kd, replicates | log10 Kd (nM), mean | signal with controls |
|---|---|---|---|---|---|
| KLSQQWLYESRNKNSVA | NASTRES | QQYHRLPLS | 0.13 / 0.04 / 0.12 / -0.22 / -0.11 / 0.21 | 0.03 | 1 of 18 (2.59) |
| KLSQSVLYESRNKNNVA | EASTRES | QDYHRLPLS | -0.11 / -0.29 / -0.35 / -0.48 / -0.39 / -0.31 | -0.32 | 2 of 18 (3.79) |
| KLSQSQLYESRNKNSVA | NASTRES | QSYHRLPLS | -0.12 / -0.22 / -0.51 / -0.39 / -0.41 / -0.31 | -0.33 | 3 of 18 (2.43) |
| KLSQSMLYESRNKNSVA | NASTRVS | QQYHRLPLS | -0.58 / -0.44 / -0.61 / -0.70 / -0.62 / -0.52 | -0.58 | 1 of 18 (2.48) |
| KLQQSFLYESRNKNSVA | NASTREE | QQYHRLPLS | -0.30 / -0.44 / -0.48 / -0.47 / -0.52 / -0.12 | -0.39 | 0 of 18 |
| KLSQSDEYESRNKNSVA | HASTRES | QQYHRLPLS | 0.26 / -0.27 / -0.18 / -0.21 / -0.20 / -0.07 | -0.11 | 0 of 18 |
| KLSQSDLYESRNKNAVA | NASQRES | QQYHRLPLS | -0.16 / -0.20 / -0.37 / -0.38 / -0.50 / -0.25 | -0.31 | 2 of 18 (2.49) |
| KLEQSQWYESRNKNSVA | NASTRES | QQYHRLPLS | 0.34 / 0.11 / 0.49 / 0.20 / 0.20 / 0.39 | 0.29 | 0 of 18 |
| KLSMSVLYESRNKNSVA | NASTRMS | QQYHRLPLS | 0.56 / 0.78 / 0.84 / 0.62 / 0.71 / 1.42 | 0.82 | 0 of 18 |
| KLSQSVLYEERNKNSVA | NASTRCS | QQYHRLPLS | -0.31 / -0.27 / -0.62 / -0.57 / -0.46 / -0.28 | -0.42 | 1 of 18 (4.17) |
| KLSQSDLYESRMKNSVA | GASTRES | QQYHRLPLS | 0.26 / -0.13 / 0.06 / -0.27 / 0.19 / 0.25 | 0.06 | 1 of 18 (1.41) |
| KVSPSELYESRNKNSVA | EASTREE | QQYHRLPLS | -0.11 / -0.24 / -0.28 / -0.33 / -0.20 / -0.26 | -0.24 | 0 of 18 |
| KLEQSWLYESRNKNSVA | NASQRLS | QQYHRLPLS | 0.06 / -0.17 / -0.25 / -0.43 / -0.39 / -0.02 | -0.20 | 0 of 18 |
| KLSQSHLYESRNKNSVA | NASTREW | QQYHRLPLS | 0.12 / 0.08 / 0.13 / -0.02 / 0.07 / 0.10 | 0.08 | 1 of 18 (4.27) |
| KFSQSHLYESRNKNSVA | EASTRES | QQYHRLPLS | -0.32 / -0.53 / -0.59 / -0.63 / -0.43 / -0.32 | -0.47 | 0 of 18 |
| KFSQSVLYESRNKNSVA | NASTRED | QQYHRLPLS | -0.04 / -0.41 / -0.34 / -0.42 / -0.41 / -0.18 | -0.30 | 2 of 18 (2.94) |
| KLQQSWLYESRNKNSVA | NASTRCS | QQYHRLPLS | -0.01 / -0.07 / -0.14 / -0.25 / 0.06 / 0.09 | -0.06 | 1 of 18 (2.89) |
| KLQQSQLYESRNKNSVA | GASTRES | QQYHRLPLS | -0.09 / -0.35 / -0.40 / -0.59 / -0.16 / -0.22 | -0.30 | 1 of 18 (2.51) |
| KLSQSVLYESRNKNSVA | NASQREQ | QQYHRLPLS | -0.03 / -0.19 / -0.06 / -0.36 / -0.21 / -0.07 | -0.15 | 1 of 18 (1.18) |
| KLDQSVLYESRNKNSVA | DASQRES | QQYHRLPLS | -0.24 / -0.37 / -0.26 / -0.27 / -0.35 / -0.16 | -0.28 | 1 of 18 (2.81) |
| KLSQSWLYESRNKNNVA | NASTRCS | QQYHRLPLS | -0.29 / -0.01 / -0.55 / -0.30 / -0.41 / -0.29 | -0.31 | 1 of 18 (4.31) |
| KSSQSQLYESRNKNSVA | NASQRES | QQYHRLPLS | nd / 2.08 / nd / nd / 1.80 / nd | 1.94 | 0 of 18 |
| KLSQSGLYESRNKNSVA | HASTRCS | QQYHRLPLS | 0.31 / 0.18 / 0.11 / 0.47 / 0.41 / 0.38 | 0.31 | 0 of 18 |
| KLKQSELYESRNKNSVA | EASTRES | QQYHRLPLS | 1.21 / 0.82 / 1.44 / 0.67 / 0.74 / 0.79 | 0.94 | 1 of 18 (2.60) |
| KLSQSVLYESRNKNSVA | NASTRMV | QQYHRLPLS | -0.02 / 0.38 / -0.01 / -0.19 / -0.13 / 0.44 | 0.08 | 2 of 18 (2.31) |
| KLQQSVEYESRNKNSVA | SASTRLS | QQYHRLPLS | -0.08 / -0.02 / -0.13 / -0.49 / -0.24 / -0.11 | -0.18 | 2 of 18 (2.00) |
| KLSQSVLYESRMKNSVA | DASQRES | QQYHRLPLS | -0.15 / -0.38 / -0.34 / -0.44 / -0.55 / -0.34 | -0.37 | 2 of 18 (2.38) |
| KVEQSELYESRNKNAVA | NASQRES | QQYHRLPLS | -0.17 / -0.03 / -0.39 / -0.17 / -0.24 / -0.11 | -0.18 | 0 of 18 |
| KLPQSVLYGSRNKNSVA | EASTRES | QQYHRLPLS | -0.23 / -0.29 / -0.34 / -0.53 / -0.37 / 0.00 | -0.29 | 1 of 18 (3.52) |
| KLMQSQLYESRMKNSVA | NASTRES | QQYHRLPLS | 0.23 / 0.07 / -0.08 / -0.09 / 0.06 / 0.04 | 0.04 | 1 of 18 (2.43) |
| KYSQSDLYESRNKNSVA | GASTRES | QQYHRLPLS | -0.02 / 0.21 / 0.34 / 0.28 / 0.08 / 0.05 | 0.16 | 5 of 18 (3.14) |
| KVSQSQLYEDRNKNSVA | NASQRES | QQYHRLPLS | 0.41 / -0.03 / -0.14 / 0.01 / 0.29 / 0.17 | 0.12 | 0 of 18 |
| KLSQSDLYESRNSNSVA | DASTRES | QQYHRLPLS | 0.41 / -0.09 / -0.06 / 0.14 / 0.26 / 0.47 | 0.19 | 1 of 18 (3.45) |
| KLAQSVLYESRNKNSVA | NASTRMS | QQYHRLPLS | -0.10 / -0.08 / -0.13 / 0.08 / 0.41 / 0.28 | 0.08 | 0 of 18 |
| KLSQSQLYESRNKNSVA | DASQRES | QQYHRLPLS | -0.32 / -0.50 / -0.70 / -0.86 / -0.42 / -0.51 | -0.55 | 0 of 18 |
| KLPQSELYESRNKNSVA | NASTREV | QQYHRLPLS | -0.04 / -0.24 / -0.35 / -0.43 / -0.44 / -0.26 | -0.30 | 1 of 18 (2.33) |
| KLSQSVLYESRNKNNVA | SASTRSS | QQYHRLPLS | -0.11 / -0.17 / -0.43 / -0.48 / -0.38 / -0.10 | -0.28 | 1 of 18 (2.74) |
| KVSPSHLYESRNKNSVA | EASTRES | QQYHRLPLS | 0.44 / 0.36 / 0.22 / 0.15 / 0.37 / 0.52 | 0.35 | 0 of 18 |
| KFSQSVLYESRNKNSVA | GGSTRES | QQYHRLPLS | -0.40 / -0.54 / -0.49 / -0.79 / -0.78 / -0.41 | -0.57 | 0 of 18 |
| KLSQSVLYEQRNKNSVA | EASTRCS | QQYHRLPLS | -0.20 / -0.27 / -0.37 / -0.49 / -0.33 / -0.22 | -0.31 | 1 of 18 (2.14) |
| KLSQSVLYEMRNKNSVA | NASQRES | QQYHRLPLS | -0.14 / -0.17 / -0.37 / -0.47 / -0.27 / -0.27 | -0.28 | 3 of 18 (3.70) |
| KVSQSQLYESRNKNSVA | HASQRES | QQYHRLPLS | -0.01 / 0.03 / -0.36 / -0.02 / -0.15 / 0.05 | -0.08 | 0 of 18 |
| KLSQSMLYESRNKNSVA | NASKRES | QQYHRLPLS | -0.03 / -0.18 / -0.27 / -0.42 / -0.27 / -0.02 | -0.20 | 1 of 18 (2.88) |
| KVQQSWLYESRNKNSVA | EASTRES | QQYHRLPLS | 0.61 / -0.10 / -0.07 / 0.08 / 0.82 / 1.06 | 0.40 | 1 of 18 (2.27) |

Source: Li et al. 2023 (doi:10.1038/s41467-023-39022-2), MIT Lincoln Laboratory and A-Alpha Bio; data file from the FLAb repository.